The record followed here is patent publication US8168650B2, “Therapeutic uses of bicyclic ligands of sigma 2 receptor” (priority 2006, dated 2012).

Amino acid sequences for entries named in this document (tags omitted).
UniProt Q60492, whole entry: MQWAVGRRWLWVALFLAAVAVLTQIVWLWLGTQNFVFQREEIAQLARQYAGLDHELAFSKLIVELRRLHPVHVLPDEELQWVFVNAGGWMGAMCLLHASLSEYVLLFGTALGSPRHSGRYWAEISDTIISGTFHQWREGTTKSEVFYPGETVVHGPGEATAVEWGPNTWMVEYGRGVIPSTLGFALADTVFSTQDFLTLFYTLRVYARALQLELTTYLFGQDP
UniProt Q5U3Y7, whole entry: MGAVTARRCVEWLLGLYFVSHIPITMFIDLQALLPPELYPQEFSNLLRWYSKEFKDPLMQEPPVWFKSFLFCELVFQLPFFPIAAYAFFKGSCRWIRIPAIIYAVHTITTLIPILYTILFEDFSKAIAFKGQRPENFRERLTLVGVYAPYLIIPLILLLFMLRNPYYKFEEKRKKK

Structures are written as SMILES. Counter-ions that a name gives are not always drawn. Like-named read-outs stand apart in the source and are kept apart here.

For test [1], the target named is T1, σ1 receptor (Cavia porcellus, UniProt Q60492).
The target of another test is σ2 receptor (Rattus norvegicus, UniProt Q5U3Y7). The experiment in a line: σ2 receptor binding assay, [3H]DTG or [3H]RHM-1. Conditions: for σ1/σ2 Ratio: Ki for σ1/Ki for σ2.
The subject of the next test is EMT-6 cells. As to the kind of experiment: Cytotoxicity assay (MTS) in EMT-6 cells. The format is cell-based, mouse. Conditions: EMT-6, MTS assay.
Test [2] has as its target T1, σ1 receptor. As to the kind of experiment: σ1 receptor binding assay, [3H](+)-pentazocine. Conditions: read-out: Ki for σ1; as listed in Table 2.
Setting [3] is: read-out: Ki σ2, inhibiting binding of [3H]DTG or [3H]RHM-1 to rat liver homogenates, mean ± SEM.
The mark [4] stands for this setting: read-out: EC50 (μM, 24 hours), 24 hours.
Where [5] appears, read: read-out: EC50 (μM, 48 hours), 48 hours.

`COc1ccc(C)cc1NC(=O)O[C@H]1C[C@H]2CCC[C@@H](C1)N2CCCCCCCCCCNC(=O)CCCCCNC(=O)CCCC[C@@H]1SC[C@@H]2NC(=O)N[C@@H]21`: the inhibition constant (Ki) is 3.82 µM on σ1 receptor [1] and 0.733 µM on σ2 receptor (setting [3]). Besides, at σ2 receptor, the “σ1/σ2 Ratio” value was 5.21.

Regarding `COc1ccc(C)cc1NC(=O)OC1CC2CCCC(C1)N2CCc1ccccc1` (stereo not drawn), the values for the concentration giving a half-maximal response (EC50) in the test on EMT-6 cells (setting [4]) and in the test on EMT-6 cells (setting [5]) were 51 µM and 31.5 µM, respectively.

`COc1ccc(C)cc1NC(=O)OC1CC2CCCC(C1)N2CCCCN` (stereo not drawn) [Compound 1a, N-(9-(4-Aminobutyl)-9-azabicyclo[3.3.1]nonan-3α-yl)-N-(2-methoxy-5-methyl-phenyl)carbamate hydrochloride]: the inhibition constant Ki at σ1 receptor [2] was determined as 6.29 µM; at σ2 receptor (read-out: Ki for σ2, as listed in Table 2), 0.0283 µM. The EC50 in the test with EMT-6 cells (setting [4]) was 30 µM; in the test with EMT-6 cells (setting [5]), 18.5 µM.

As for `COc1ccc(C)cc1NC(=O)O[C@H]1C[C@H]2CCC[C@@H](C1)N2CCCCCCCCCCNC(=O)CCCC[C@@H]1SC[C@@H]2NC(=O)N[C@@H]21`, the Ki is 10.2 µM at σ1 receptor [1] and 0.0697 µM on σ2 receptor (setting [3]). Moreover, the “σ1/σ2 Ratio” value at σ2 receptor is given as 147.

Take `COc1ccc(C)cc1NC(=O)O[C@H]1C[C@H]2CCC[C@@H](C1)N2CCCCCCNC(=O)CCCCCNC(=O)CCCC[C@@H]1SC[C@@H]2NC(=O)N[C@@H]21`: the Ki on σ1 receptor [1] was determined as 10.4 µM; on σ2 receptor (setting [3]), 1.35 µM. Further, on σ2 receptor, the “σ1/σ2 Ratio” value came out at 7.67.

What is called Ki is the dissociation constant of the complex between target and ligand, obtained from inhibition or displacement. The EC50 is the concentration at which the effect is half-maximal.
